Source: EP4678648A1, “SYNTHESIS METHOD OF ANTIBODY-DRUG CONJUGATES USING PROXIMITY EFFECT-BASED SITE-SELECTIVE ANTIBODY LABELING” (Sogang University Research Business Development Foundation, priority 2023, dated 2024)

Columns and labels:
MDA-MB-231 = experiment: Anti-proliferation assay (CellTiter-Glo, 72 hours); assay type: cell-based; details: MDA-MB-231 (HER2-negative), read-out: GI50s
Protocol: (§1) MDA-MB-231, MDA-MB-453, and SK-BR-3 were purchased from KCLB (Seoul, Korea). Cells were cultured in RPMI 1640 supplemented with 10% (v/v) fetal bovine serum (FBS) and 1% (v/v) penicillin/streptomycin (Welgene, Korea) and incubated at 37°C in a humidified 5% CO2 incubator.
(§2) Cells were seeded in 96-well plates at a density of 3,000 cells per well. After cell attachment, cells were treated with ADC serially diluted four-fold in PBS. After incubation at 37°C for 72 hours, cell viability was measured using CellTiter-Glo (G7572, Promega, Madison, WI, USA). Fitter dose-response curves and GI50 values were obtained using GraphPad Prism 6.0 software, and all experiments were conducted in duplicate.
(§3) To evaluate the cytotoxicity of the synthesized ADC, cell viability assays were conducted using breast cancer cell lines. Three cell lines were used, including two HER2-positive cell lines (SK-BR-3: high; MDA-MB-453: low) and one HER2-negative cell line (MDA-MB-231). The cells were treated with trastuzumab-(VC-PABC-MMAE)2, and trastuzumab WT and Kadcyla were also tested for comparison.

MDA-MB-453 = experiment: Anti-proliferation assay (CellTiter-Glo, 72 hours); assay type: cell-based; details: MDA-MB-453 (HER2 low), read-out: GI50s
Protocol: as §1, §2, §3

## Kadcyla: tested for comparison with the synthesized ADC
MDA-MB-231
  IC50: > 10 nM
MDA-MB-453
  IC50: > 10 nM
